Antibody variant affinities, Ab-91 heavy chain, assay 2

Antigen: PDVDLGDISGINAS, a 14-residue peptide of the SARS-CoV-2 spike HR2 region.

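The library (AAYL51) carries one to three amino acid substitutions per variant, with no insertions or deletions. AlphaSeq pools MATa yeast showing the antibodies with MATalpha yeast showing the peptide. The frequency of each diploid, read from paired DNA barcodes, reflects how well the two displayed proteins bind. Read counts were normalised to the haploid input and turned into Kd by a linear fit to BCL2-family pairs of known affinity, for each replicate. Each pool was mated in three replicate cultures.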

Parent: Ab-91, a human scFv built as VL, the linker GGGGSGGGGSGGGGS, VH. Only the CDRs of the heavy chain vary.
VL: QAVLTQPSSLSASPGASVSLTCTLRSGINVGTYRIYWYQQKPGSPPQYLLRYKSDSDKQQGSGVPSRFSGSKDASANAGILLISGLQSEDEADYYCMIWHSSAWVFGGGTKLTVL
VH: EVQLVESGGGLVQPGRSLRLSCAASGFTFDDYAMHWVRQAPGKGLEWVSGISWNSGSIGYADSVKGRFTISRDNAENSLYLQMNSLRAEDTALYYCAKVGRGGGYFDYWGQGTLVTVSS

Each variant is given by its three heavy chain CDRs, as the data file delimits them; those of the parent are GFTFDDYAMH, GISWNSGSIGYADSVK, VGRGGGYFDY. Kd is apparent (estimated from mating counts) and averaged on the log scale over replicates with a signal. Smaller is tighter. A pair that was not seen in any replicate is written "nd"; this usually means weak binding, but a binder can also be missed. Three control strains display no target. For library AAYL51, 21% of the pairings with them gave a signal, with a median of 34 µM and one signal in twenty below 1.8 µM, so weak values seen in few replicates may be background.

GFTFDDYMMH, GPSWNSGSITYADSVK, VGRGGGYFDY: nd (0 of 3 replicates).
GFTFDDYAMH, GISWNSGSIGYADSVK, VGRKGGNFDE: nd (0 of 3 replicates).
GFTFDDYAMH, CISWNQGSIGYADSVK, VGSGGGYFDY: 3.0 mM (1 of 3 replicates).
GFHFDDYAMH, GISWNWGSIGYADSVK, IGRGGGYFDY: 170 µM (3 of 3 replicates).
PFTFDDYAMH, GISWNSWSIGYPDSVK, VGRGGGYFDY: nd (0 of 3 replicates).
GCTFDDYAMI, GISWNSGSIGYADSVK, VGRGGGYFDY: nd (0 of 3 replicates).
GFTFDDYAMH, GIAWNSGSIGYPDSVK, VGRGGGMFDY: nd (0 of 3 replicates).
GFTFDDYAMH, GISWNSGSIGYADSVK, VGRGGNYFFY: 57 nM (3 of 3 replicates).
GFNFDDYAMH, GISWNSGSWGYADSVK, VGRGGFYFDY: nd (0 of 3 replicates).
GFTFDDYAMH, GISWNCGSIGYADSSW, VGRGGGYFDY: nd (0 of 3 replicates).
RFTFDVYAMH, GISWNSGSIYYADSVK, VGRGGGYFDY: nd (0 of 3 replicates).
GFTFDDYFMH, GISWNSGSIGYADSVK, VGSGGGRFDY: nd (0 of 3 replicates).
FFTFDDYAMH, GISWESGSIGYADSVK, VGRGGGYWDY: nd (0 of 3 replicates).
GCTFDDYAMH, GISWNSGSIGYADSVF, VGRGGGYFDY: nd (0 of 3 replicates).
GFTFDDYAMH, GCSWNSGNYGYADSVK, VGRGGGYFDY: 21 µM (1 of 3 replicates).
GFTFDDYFMH, GICWNSGSIGYADSVK, TGRGGGYFDY: 34 µM (3 of 3 replicates).
GFTFDDAAMH, GISWNSGSIGYADSVK, VGRGGGYFRM: 990 nM (3 of 3 replicates).
GFTFDDYAIC, GISWNSGSIGYADSVK, TGRGGGYFDY: 8.5 µM (2 of 3 replicates).
GITKDDYAMH, GISWNVGSIGYADSVK, VGRGGGYFDY: 3.3 µM (1 of 3 replicates).
GFTFDDYAMH, GISWASGSIGYADSGK, VGNGGGYFDY: 240 µM (2 of 3 replicates).
GTTFDCYAMH, GISWNSGSVGYADSVK, VGRGGGYFDY: 73 µM (2 of 3 replicates).
IYTFDDYAMH, GISWNSGSIGYSDSVK, VGRGGGYFDY: 24 µM (1 of 3 replicates).
GFTFDDYAMH, GISWNSGSIGYADCVK, VGRGGQSFDY: nd (0 of 3 replicates).
GFEFDDYDMH, GISWNSGSIGYADSVK, VGRGGGDFDY: 24 µM (1 of 3 replicates).
GFTFDDYHMH, GISSNSGSFGYADSVK, VGRGGGYFDY: nd (0 of 3 replicates).
GITFDDYPMH, GISWNSGSIGYADSVK, VGRGGGYFDT: 610 nM (3 of 3 replicates).
GFTFDDYAME, GISWNSGSIHYADSLK, VGRGGGYFDY: 1.5 mM (1 of 3 replicates).
GETFDDYAMH, GISVNSGSIGVADSVK, VGRGGGYFDY: nd (0 of 3 replicates).
CFTFDDYAMH, GISWNSFSIGYADSVK, VGRCGGYFDY: nd (0 of 3 replicates).
GFTFDDYAVH, GISWNSGDSGYADSVK, VGRGGGYFDY: 65 µM (2 of 3 replicates).
GFTFDDYAMH, GHSWNSGSIGYADSVK, PGEGGGYFDY: 81 µM (1 of 3 replicates).
GFTFDDYAMH, GVSWNSGSIGYADSVI, VGWGGGYFDY: 1.5 µM (3 of 3 replicates).
GFTFDDYAMH, GISWNSGSLGYSDSVK, VGRRGGYFDY: nd (0 of 3 replicates).
GFTFDDYKMH, GISWNSISIGYADSVK, VGRGGGYPDY: nd (0 of 3 replicates).
GFTFDLYAMH, GISWNSGSIVYADSVK, VGRGFGYFDY: nd (0 of 3 replicates).
GFTFDHYAMH, GISWNSGSIGYATSVK, VGRCGGYFDY: 12 nM (3 of 3 replicates).
GFTFDDYAMH, GISWNSIKIGYADSVK, VGDGGGYFDY: 72 µM (3 of 3 replicates).
DFTFDDYAMH, GISWNSLSGGYADSVK, VGRGGGYFDY: 130 µM (2 of 3 replicates).
GFTFDDYAMH, GISWNSGSIYYAMSVK, VGRGGGYFDY: nd (0 of 3 replicates).
GFTFDDYAPH, GISWNSGSIGYTDSVK, RGRGGGYFDY: 110 µM (1 of 3 replicates).
GFTFDDYAMH, GISWNSGSIGYAGSVK, VPRGGGYFDY: nd (0 of 3 replicates).
GFTHDDYAMH, GIAWNSGSIGYADLVK, VGRGGGYFDY: 26 nM (1 of 3 replicates).
GFTFDDYAMH, GISWNSGDIGYADSVK, VGRGGEMFDY: 16 µM (1 of 3 replicates).
CFTFDDYAMH, GSSWNSGSIGYADSVK, IGRGGGYFDY: 250 µM (1 of 3 replicates).

The 5 strongest on average among those seen in every replicate, once more:

{"CDR-H1": "GFTFDHYAMH", "CDR-H2": "GISWNSGSIGYATSVK", "CDR-H3": "VGRCGGYFDY", "apparent Kd": "12 nM", "detected": "3/3"}
{"CDR-H1": "GFTFDDYAMH", "CDR-H2": "GISWNSGSIGYADSVK", "CDR-H3": "VGRGGNYFFY", "apparent Kd": "57 nM", "detected": "3/3"}
{"CDR-H1": "GITFDDYPMH", "CDR-H2": "GISWNSGSIGYADSVK", "CDR-H3": "VGRGGGYFDT", "apparent Kd": "610 nM", "detected": "3/3"}
{"CDR-H1": "GFTFDDAAMH", "CDR-H2": "GISWNSGSIGYADSVK", "CDR-H3": "VGRGGGYFRM", "apparent Kd": "990 nM", "detected": "3/3"}
{"CDR-H1": "GFTFDDYAMH", "CDR-H2": "GVSWNSGSIGYADSVI", "CDR-H3": "VGWGGGYFDY", "apparent Kd": "1.5 µM", "detected": "3/3"}

Reference: Engelhart et al. 2022, doi:10.1038/s41597-022-01779-4. File: FLAb, binding data.